Measured values taken from patent US6583179B2, “Substituted aminoalkylamide derivatives as antagonists of follicle stimulating hormone” (Ortho-McNeil Pharmaceutical, Inc., priority 1999, dated 2003).

Amino acid sequences for entries named in this document (tags omitted). Residues count along the entry.
UniProt P23945, 18-695 limits assumed: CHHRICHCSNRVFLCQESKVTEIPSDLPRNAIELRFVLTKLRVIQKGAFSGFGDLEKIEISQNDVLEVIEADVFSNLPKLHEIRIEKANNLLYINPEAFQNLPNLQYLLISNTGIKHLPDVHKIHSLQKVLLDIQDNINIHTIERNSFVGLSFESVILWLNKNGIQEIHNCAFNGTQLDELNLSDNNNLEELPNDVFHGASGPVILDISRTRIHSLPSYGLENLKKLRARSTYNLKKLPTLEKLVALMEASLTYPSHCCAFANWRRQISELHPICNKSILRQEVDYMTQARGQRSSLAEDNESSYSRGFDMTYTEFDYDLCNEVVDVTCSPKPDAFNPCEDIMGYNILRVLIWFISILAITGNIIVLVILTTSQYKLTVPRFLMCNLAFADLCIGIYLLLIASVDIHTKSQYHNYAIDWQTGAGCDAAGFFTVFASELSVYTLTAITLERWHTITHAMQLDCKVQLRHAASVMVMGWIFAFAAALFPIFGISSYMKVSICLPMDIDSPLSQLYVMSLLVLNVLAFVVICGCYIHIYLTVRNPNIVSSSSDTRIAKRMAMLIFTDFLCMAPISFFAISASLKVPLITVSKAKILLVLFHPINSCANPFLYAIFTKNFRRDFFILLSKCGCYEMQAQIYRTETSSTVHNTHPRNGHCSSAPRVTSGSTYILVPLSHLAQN

The compounds below were run against human FSH receptor (Homo sapiens, UniProt P23945) (assay: hFSHR CHO cAMP assay (rhFSHR-cLUC cells, FSH-stimulated cAMP, radioimmunoassay)). Conditions: read-out: EC50 hFSHR CHO cAMP; inhibition of cAMP produced by EC70 dose of FSH (4.85 nM); maximum concentration 50 μM.
Source text: Minimum Essential Medium-Alpha (MEM-alpha), fetal bovine serum (FBS), penicillin, streptomycin, geneticin, trypsin-EDTA, Hanks' Balanced Salt Solution (no Calcium chloride, Magnesium chloride, Magnesium sulfate, or phenol red; Ca-Mg free HBSS) were purchased from Gibco BRL (Gaithersburg, Md.). The cells used for the FSH bioassay (rhFSHR-cLUC) were Chinese Hamster Ovary cells (K-1; ATCC) stably transformed with human FSH receptor (pSVK-FSHr) and a cAMP luciferase reporter gene (responsive CGα-180LUC). Follicle Stimulating Hormone (Metrodin; Fertinex) was purchased from Serono, Ltd. (Norwell, Mass.).
The rhFSHR-cLUC cell cultures were maintained in MEM-Alpha supplemented with 10% heat-inactivated FBS (HIFBS), 100 U/ml penicillin, 100 μg/mL streptomycin, and included 0.1 g/L geneticin for stable cell selection.
Forty-eight hours after the cells were plated in sterile 96-well culture plates (Corning, Corning, N.Y.) the spent media was removed and 50 μl assay media (modified growth media with 2% HIFBS) containing 2 mM IBMX (3-isobutyl-1-methyl-xanthine) was added to the cells. Compounds (25 μl) in the appropriate concentration were added followed 5 minutes later by an EC70 dose of FSH (25 μl; 160 ng/ml; 4.85 nM). After 10 minutes @ 22.5° C. (room temperature) the reaction was terminated by addition of 25 μL 0.5 N hydrochloric acid to each well. The amount of cAMP produced was measured by radioimmunoassay in a FlashPlate (DuPont, Boston, Mass.). To each flash plate 60 μL flash plate buffer was added followed by 40 μL acidified cell sample or cAMP standard, followed with the addition of 100 μl ^125l-cAMP trace. The FlashPlates were sealed, incubated overnight @ room temperature, and counted in a Packard TopCount (Packard Instrument Co., Meriden, Conn.). The cAMP radioimmunoassay results were calculated using DPM conversion and log-logit transformation of % binding (Excel program).
Test compounds were solubilized in 30% dimethyl sulfoxide (DMSO) at a concentration of 10 mM before diluting to appropriate concentrations in assay medium. The final DMSO concentration in the treated cells and in the control cells was 0.75%.
For individual experiments, a set of samples were tested including a vehicle control (assay buffer), a reference compound (hFSH) at a range of concentrations designed to elicit a minimal to maximal response, and several concentrations of test compounds together with an EC70 concentration of standard (hFSH challenge). Each compound was performed in duplicates for the primary evaluation and quadruplicates for the dose-ranging experiments. The cAMP radioimmunoassay raw data (pmol) were calculated to provide average pmol cAMP produced/ml and the percent inhibition was calculated as shown below.
% Inh=[1−(Avg.pmoltest compound+standard)/(Avg.pmolstandard)]×100
EC50 values were calculated from an analysis of the concentration-inhibition data using a linear analysis of the data transformed to a log-logit format.

| EC50 | SMILES |
| --- | --- |
| 38.9 µM | COc1ccccc1CN(CC(=O)N1CCNCC1)S(=O)(=O)c1ccc(-c2ccccc2)cc1 |
| 0.31 µM | CC(CN(CC(=O)NCc1ccc(CN)cc1)S(=O)(=O)c1ccc(-c2ccccc2Cl)cc1)c1ccc(Cl)cc1 (centres unmarked) |
| 5.36 µM | COc1ccccc1CN(CC(=O)NCC1CCC(CN)CC1)S(=O)(=O)c1cccc(Cl)c1Cl (single isomer, unassigned) [402] |
| > 50 µM | C[C@@H](CN(CC(=O)NCc1ccc(CN)cc1)S(=O)(=O)c1ccc(-c2cc(C(F)(F)F)cc(C(F)(F)F)c2)cc1)c1ccccc1 |
| 0.75 µM | Cc1ccccc1-c1ccc(S(=O)(=O)N(CC(=O)N2CCC(C3CCNCC3)CC2)C[C@@H](C)c2ccccc2)cc1 |
| 32.5 µM | CC(C)N(C(=O)c1ccccc1-c1ccc(S(=O)(=O)N(CC(=O)NCc2ccc(CN)cc2)C[C@H](C)c2ccccc2)cc1)C(C)C |
| 8.41 µM | COc1ccccc1CCN(CC(=O)NCc1ccc(CN)cc1)S(=O)(=O)c1ccccc1C(F)(F)F |
| 0.65 µM | COc1ccccc1CCN(CC(=O)NCc1cccc(CN)c1)S(=O)(=O)c1ccc(-c2ccccc2OC)cc1 |
| 8.94 µM | COc1ccccc1CCN(CC(=O)NCc1ccc(CN)cc1)S(=O)(=O)c1ccc(-c2ccncc2)s1 |
| 0.09 µM | Cc1ccccc1-c1ccc(S(=O)(=O)N(CC(=O)NCc2cccc(CN)c2)C[C@@H](C)c2ccccc2)cc1 |
| 4.53 µM | COc1ccccc1CCN(CC(=O)NCc1ccc(CN)cc1)S(=O)(=O)c1ccccc1 |
| 3.86 µM | COc1ccccc1CCN(CC(=O)NCc1ccc(CN)cc1)S(=O)(=O)c1ccccc1[N+](=O)[O-] |
| 0.19 µM | C[C@H](CN(CC(=O)NCc1ccc(CN)cc1)S(=O)(=O)c1ccc(-c2c(F)cccc2F)cc1)c1ccccc1 |
| 7.45 µM | COc1ccccc1CCN(CC(=O)NCc1ccc(CN)cc1)S(=O)(=O)c1ccccc1-c1ccc(C(F)(F)F)cc1 |
| 18.9 µM | C[C@@H](CN(CC(=O)NCc1ccc(CN)cc1)S(=O)(=O)c1ccc(-c2ccc3ccccc3c2)cc1)c1ccccc1 |
| 0.86 µM | C[C@@H](CN(CC(=O)NCc1ccc(CN)cc1)S(=O)(=O)c1ccc(-c2ccc(Cl)c(F)c2)cc1)c1ccccc1 |
| 3.13 µM | COc1ccccc1CCN(CC(=O)NCc1ccc(CN)cc1)S(=O)(=O)c1ccccc1-c1ccc(OC)c(OC)c1OC |
| 33.1 µM | COc1ccc(OC)c(S(=O)(=O)N(CCc2ccccc2OC)CC(=O)NCc2ccc(CN)cc2)c1 |
| ≥ 50 µM | COc1ccccc1CN(CC(=O)N1CCNCC1)S(=O)(=O)c1ccc(-c2cccc3ccccc23)cc1 |
| 0.73 µM | Cc1cccc(-c2ccc(S(=O)(=O)N(CC(=O)NCc3ccc(CN)cc3)C[C@H](C)c3ccccc3)cc2)c1 |
| 1.2 µM | NCCCCCCNC(=O)CN(CCc1cccc(Cl)c1)S(=O)(=O)c1ccc(-c2ccccc2Cl)cc1 |
| 9.09 µM | COc1ccccc1CCN(CC(=O)N1CCNCC1)S(=O)(=O)c1ccc(-c2cccc(Cl)c2)cc1 |

| EC50 | SMILES |
| --- | --- |
| 0.59 µM | NCc1ccc(CNC(=O)CN(CCc2ccc(Cl)cc2Cl)S(=O)(=O)c2ccc(-c3ccccc3Cl)cc2)cc1 |
| 0.29 µM | Cc1ccccc1-c1ccc(S(=O)(=O)N(CCc2ccccc2)CC(=O)NCc2ccc(CN)cc2)cc1 |
| ≥ 50 µM | COc1ccccc1CN(CC(=O)N1CCNCC1)S(=O)(=O)c1ccc(-c2ccc(Cl)cc2)cc1 |
| 0.35 µM | C[C@H](CN(CC(=O)NCc1ccc(CN)cc1)S(=O)(=O)c1ccc(-c2ccccc2F)cc1)c1ccccc1 |
| 0.3 µM | C[C@@H](CN(CC(=O)NCc1ccc(CN)cc1)S(=O)(=O)c1ccc(-c2ccccc2C(F)(F)F)cc1)c1ccccc1 [304] |
| 31.2 µM | COc1ccccc1CCN(CC(=O)NCc1ccc(CN)cc1)S(=O)(=O)c1ccc(C(C)(C)C)cc1 |
| 5.98 µM | CCCCc1ccc(S(=O)(=O)N(CC(=O)NCc2ccc(CN)cc2)C[C@H](C)c2ccccc2)cc1 |
| 24.8 µM | COc1ccccc1CCN(CC(=O)N1CCNCC1)S(=O)(=O)c1ccc(-c2ccncc2)cc1 |
| 2.33 µM | NCc1ccc(CNC(=O)CN(CCC2=CCCCC2)S(=O)(=O)c2ccc(-c3ccccc3Cl)cc2)cc1 |
| 9.4 µM | COc1cccc(-c2ccc(S(=O)(=O)N(CCc3ccccc3OC)CC(=O)NCc3ccc(CN)cc3)s2)c1 |
| 4.54 µM | COc1ccccc1CCN(CC(=O)N1CCNCC1)S(=O)(=O)c1ccc(-c2ccccc2Cl)cc1 |
| 1.27 µM | COc1ccccc1CCN(CC(=O)NCc1ccc(CN)cc1)S(=O)(=O)c1ccc(-c2cccc(N)c2)s1 |
| ≥ 50 µM | C[C@H](CN(CC(=O)NCc1ccc(CN)cc1)S(=O)(=O)c1ccc(Br)cc1)c1ccccc1 |
| 1.54 µM | C[C@@H](CN(CC(=O)NCc1ccc(CN)cc1)S(=O)(=O)c1ccccc1)c1ccccc1 |
| 0.62 µM | COc1cccc(CCN(CC(=O)NCc2ccc(CN)cc2)S(=O)(=O)c2ccc(-c3ccccc3Cl)cc2)c1 |
| 1.22 µM | CSc1ccc(-c2ccc(S(=O)(=O)N(CC(=O)NCc3ccc(CN)cc3)C[C@H](C)c3ccccc3)cc2)cc1 |
| 9.81 µM | COc1ccccc1CCN(CC(=O)NCc1ccc(CN)cc1)S(=O)(=O)c1ccccc1-c1cccc2ccccc12 |
| 3.18 µM | COc1ccccc1CCN(CC(=O)NCc1ccc(CN)cc1)S(=O)(=O)c1ccc(-c2cccc(C)c2)s1 |
| 9.05 µM | C[C@@H](CN(CC(=O)NCc1ccc(CN)cc1)S(=O)(=O)c1ccc(-c2ccc(C=O)o2)cc1)c1ccccc1 |
| ≥ 50 µM | C[C@@H](CN(CC(=O)NCc1ccc(CN)cc1)S(=O)(=O)c1ccc(-c2cccc(C(=O)O)c2)cc1)c1ccccc1 |
| 0.34 µM | C[C@@H](CN(CC(=O)NCC1CCC(CN)CC1)S(=O)(=O)c1ccc(-c2cccc(F)c2)cc1)c1ccccc1 (some centres unmarked) |
| 1.01 µM | COc1ccccc1CCN(CC(=O)NCc1ccc(CN)cc1)S(=O)(=O)c1ccc(Cl)cc1 |

| EC50 | SMILES |
| --- | --- |
| 0.35 µM | NCc1ccc(CNC(=O)CN(CCc2cccc(Cl)c2)S(=O)(=O)c2ccc(-c3ccccc3Cl)cc2)cc1 |
| 7.89 µM | COc1ccccc1CCN(CC(=O)NCc1ccc(CN)cc1)S(=O)(=O)c1ccc(-c2ccccc2F)s1 |
| 1 µM | CC(C)c1ccc(S(=O)(=O)N(CC(=O)NCc2ccc(CN)cc2)C[C@H](C)c2ccccc2)cc1 |
| 0.14 µM | COc1ccc(OC)c(CCN(CC(=O)NCc2ccc(CN)cc2)S(=O)(=O)c2ccc(-c3ccccc3Cl)cc2)c1 |
| 6.27 µM | COc1ccccc1CCN(CC(=O)NCc1ccc(CN)cc1)S(=O)(=O)c1cccc(-c2ccc(F)cc2)c1 |
| 6.83 µM | COc1ccccc1CCN(CC(=O)NCc1ccc(CN)cc1)S(=O)(=O)c1ccccc1-c1cccc(C(F)(F)F)c1 |
| 18.6 µM | COc1ccccc1CCN(CC(=O)NCc1ccc(CN)cc1)S(=O)(=O)c1cc(C)ccc1OC |
| ≥ 50 µM | COc1ccccc1CN(CC(=O)N1CCNCC1)S(=O)(=O)c1ccc(-c2cccc(F)c2)cc1 |
| 7.36 µM | COc1ccccc1CCN(CC(=O)NCc1ccc(CN)cc1)S(=O)(=O)c1ccc(-c2cccc(C#N)c2)s1 |
| 4.75 µM | C[C@@H](CN(CC(=O)NCc1ccc(CN)cc1)S(=O)(=O)c1ccc(-c2ccc(Cl)cc2)cc1)c1ccccc1 |
| 0.25 µM | NCCCCCCNC(=O)CN(CCc1cccc(C(F)(F)F)c1)S(=O)(=O)c1ccc(-c2ccccc2Cl)cc1 |
| 20 µM | CC(=O)Nc1ccccc1CCN(CC(=O)NCc1ccc(CN)cc1)S(=O)(=O)c1ccc(-c2ccccc2Cl)cc1 |
| 1.73 µM | COc1ccccc1CCN(CC(=O)NCc1ccc(CN)cc1)S(=O)(=O)c1ccc(-c2cnc(SC)nc2)s1 |
| 5.5 µM | COc1ccccc1CCN(CC(=O)NCc1ccc(CN)cc1)S(=O)(=O)c1ccccc1-c1cccc(N)c1 |
| 5.1 µM | COc1ccc(-c2ccc(S(=O)(=O)N(CCc3ccccc3OC)CC(=O)NCc3ccc(CN)cc3)s2)cc1 |
| 16.3 µM | COc1cccc(-c2ccc(S(=O)(=O)N(CC(=O)NCc3ccc(CN)cc3)C[C@H](C)c3ccccc3)cc2)c1C(=O)N(C(C)C)C(C)C |
| 1.08 µM | NCc1ccc(CNC(=O)CN(CCc2ccccc2C(F)(F)F)S(=O)(=O)c2ccc(-c3ccccc3Cl)cc2)cc1 |
| 2.55 µM | C[C@H](CN(CC(=O)NC1CCC(CC2CCC(N)CC2)CC1)S(=O)(=O)c1ccc(-c2ccccc2Cl)cc1)c1ccccc1 (some centres unmarked) |
| 1.33 µM | Cc1ccccc1-c1ccc(S(=O)(=O)N(CC(=O)NC2CCC(CC3CCC(N)CC3)CC2)C[C@H](C)c2ccccc2)cc1 (some centres unmarked) |
| 4.98 µM | COc1ccc(S(=O)(=O)N(CCc2ccccc2OC)CC(=O)NCc2ccc(CN)cc2)cc1 |
| 17.5 µM | COc1ccccc1CN(CC(=O)NCc1cccc(CN)c1)S(=O)(=O)c1ccc(-c2ccccc2OC)cc1 |
